{"sequences": {"note": "By UniProt entry, the sequences of proteins in these tests, tags left out. Where a name states a change or a piece, a line headed by the entry shows the natural chain unless it says otherwise.", "UniProt Q14833": "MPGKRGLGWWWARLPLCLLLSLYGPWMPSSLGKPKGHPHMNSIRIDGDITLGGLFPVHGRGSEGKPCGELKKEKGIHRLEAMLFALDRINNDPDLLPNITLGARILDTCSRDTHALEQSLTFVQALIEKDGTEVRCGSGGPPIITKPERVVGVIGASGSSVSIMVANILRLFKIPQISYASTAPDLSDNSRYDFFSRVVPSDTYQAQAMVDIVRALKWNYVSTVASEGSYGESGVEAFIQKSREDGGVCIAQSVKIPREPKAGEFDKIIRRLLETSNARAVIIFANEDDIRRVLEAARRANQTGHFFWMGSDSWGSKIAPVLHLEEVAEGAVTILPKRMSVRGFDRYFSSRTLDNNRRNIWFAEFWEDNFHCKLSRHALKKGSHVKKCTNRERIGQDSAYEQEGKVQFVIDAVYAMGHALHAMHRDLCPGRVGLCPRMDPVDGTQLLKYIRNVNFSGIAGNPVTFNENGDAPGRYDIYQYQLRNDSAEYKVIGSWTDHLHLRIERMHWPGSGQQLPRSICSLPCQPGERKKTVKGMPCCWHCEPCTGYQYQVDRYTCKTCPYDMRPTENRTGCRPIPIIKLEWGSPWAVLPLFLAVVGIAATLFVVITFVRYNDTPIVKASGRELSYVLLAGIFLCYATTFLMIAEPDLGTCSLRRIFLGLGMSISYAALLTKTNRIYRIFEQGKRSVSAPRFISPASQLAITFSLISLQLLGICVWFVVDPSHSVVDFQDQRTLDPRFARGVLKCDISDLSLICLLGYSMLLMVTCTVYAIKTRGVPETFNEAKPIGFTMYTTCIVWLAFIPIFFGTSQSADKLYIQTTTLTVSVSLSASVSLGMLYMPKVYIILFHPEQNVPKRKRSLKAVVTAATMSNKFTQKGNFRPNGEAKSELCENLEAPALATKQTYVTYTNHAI"}, "source": "BindingDB's records for doi:10.1146/annurev.pharmtox.37.1.205", "about": "(Emory University, 1997)", "target": "Metabotropic glutamate receptor 4 (Homo sapiens, UniProt Q14833)"}
{"smiles": "N[C@@]1(C(=O)O)CC[C@H](C(=O)O)C1", "note": "[1S, 3R-ACPD]", "values": [{"measurement": "Ki", "value": "> 10", "unit": "µM"}]}
